Experimental findings from ChEMBL document CHEMBL1140260, “Synthesis and SAR of diazepine and thiazepine TACE and MMP inhibitors” (Bioorg Med Chem Lett, 2005) are described below.

Usually IC50 stands for the midpoint of a concentration-inhibition curve. A low value points to higher potency.

This assay addresses T1, Interstitial collagenase (Homo sapiens, UniProt P03956).
T1 sequence (P03956 whole entry): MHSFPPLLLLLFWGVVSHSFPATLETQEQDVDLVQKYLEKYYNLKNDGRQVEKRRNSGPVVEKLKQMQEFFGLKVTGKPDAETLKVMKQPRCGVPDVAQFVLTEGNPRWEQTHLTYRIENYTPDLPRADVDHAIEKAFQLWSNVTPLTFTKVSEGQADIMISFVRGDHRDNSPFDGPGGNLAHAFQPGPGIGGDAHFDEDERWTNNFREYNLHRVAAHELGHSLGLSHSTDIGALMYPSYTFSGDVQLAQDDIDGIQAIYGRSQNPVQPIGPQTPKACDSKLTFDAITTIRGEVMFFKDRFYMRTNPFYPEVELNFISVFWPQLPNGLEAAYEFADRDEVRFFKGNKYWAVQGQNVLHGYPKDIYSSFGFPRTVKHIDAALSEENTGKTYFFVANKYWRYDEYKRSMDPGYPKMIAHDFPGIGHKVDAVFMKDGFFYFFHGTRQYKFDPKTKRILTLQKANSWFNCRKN
As to the kind of experiment: Inhibitory concentration against matrix metalloprotease-1 at 1 uM.

On to `CC#CCOc1ccc(S(=O)(=O)N2CCCN(C(C)=O)CC2C(=O)NO)cc1` (configuration not stated), for which half-maximal inhibition (IC50) required 2120 nM. On to `CC#CCOc1ccc(S(=O)(=O)N2CCCN(C(=O)c3cccs3)CC2C(=O)NO)cc1` (configuration not stated), for which the IC50 is 645 nM.
